According to PubChem BioAssay (NCI):
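A five-concentration, 48-hour dose response in 96-well plates underlies each endpoint, interpolated linearly between surrounding concentrations. GI50: concentration for 50% inhibition of growth. Definition used: TGI = concentration required for complete inhibition of growth.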

System: MDA-MB-468 breast
Experiment: growth of human tumour cells (NCI), 48 h

CCOc1ccc(N(CCCl)CCCl)cc1
GI50: 0.845 µM
TGI: 5.33 µM
